Reference: paper PMC8343220, “The selectivity of α‐adrenoceptor agonists for the human α1A, α1B, and α1D‐adrenoceptors” (Pharmacology Research & Perspectives, 2021)

Chains of the proteins cited; added tags and fusions are not shown.
UniProt P25100, whole entry: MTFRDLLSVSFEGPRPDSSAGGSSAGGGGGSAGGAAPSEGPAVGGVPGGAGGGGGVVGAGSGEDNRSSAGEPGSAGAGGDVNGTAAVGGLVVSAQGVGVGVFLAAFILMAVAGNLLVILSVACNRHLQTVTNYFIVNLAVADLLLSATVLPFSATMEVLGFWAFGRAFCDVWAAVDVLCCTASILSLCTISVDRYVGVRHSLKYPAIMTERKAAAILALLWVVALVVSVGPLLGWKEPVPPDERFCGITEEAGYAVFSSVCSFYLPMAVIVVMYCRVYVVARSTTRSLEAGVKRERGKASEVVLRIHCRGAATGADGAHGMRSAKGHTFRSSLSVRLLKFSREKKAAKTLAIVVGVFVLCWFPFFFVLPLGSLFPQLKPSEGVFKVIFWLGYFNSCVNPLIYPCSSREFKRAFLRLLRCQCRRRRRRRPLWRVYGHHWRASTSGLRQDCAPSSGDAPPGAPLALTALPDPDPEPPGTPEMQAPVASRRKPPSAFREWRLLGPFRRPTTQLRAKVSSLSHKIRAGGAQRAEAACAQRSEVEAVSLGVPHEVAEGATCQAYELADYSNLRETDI
UniProt P35368, whole entry: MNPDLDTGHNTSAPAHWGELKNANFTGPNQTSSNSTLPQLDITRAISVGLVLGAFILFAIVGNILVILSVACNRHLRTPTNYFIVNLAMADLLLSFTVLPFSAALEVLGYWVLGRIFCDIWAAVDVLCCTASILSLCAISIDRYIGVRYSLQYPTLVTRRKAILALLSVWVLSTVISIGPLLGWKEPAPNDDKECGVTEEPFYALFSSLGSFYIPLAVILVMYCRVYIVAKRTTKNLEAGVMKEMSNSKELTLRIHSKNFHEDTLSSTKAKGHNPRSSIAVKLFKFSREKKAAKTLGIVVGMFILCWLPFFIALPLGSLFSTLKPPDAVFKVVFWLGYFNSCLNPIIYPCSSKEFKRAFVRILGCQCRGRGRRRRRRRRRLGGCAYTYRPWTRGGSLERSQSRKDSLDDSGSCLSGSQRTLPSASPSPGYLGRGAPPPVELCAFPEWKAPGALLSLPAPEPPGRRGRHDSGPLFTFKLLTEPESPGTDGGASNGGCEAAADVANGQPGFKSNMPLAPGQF

Assays:
human α1A‐adrenoceptor [1] = molecular target: T1, human α1A‐adrenoceptor (Homo sapiens, UniProt P35348); assay: ^3H‐cAMP accumulation, CHO‐α1A cells; type: cell-based
T1 construct: expressed in transfected cells; host or cells: CHO-K1
T1 sequence (P35348 1-466): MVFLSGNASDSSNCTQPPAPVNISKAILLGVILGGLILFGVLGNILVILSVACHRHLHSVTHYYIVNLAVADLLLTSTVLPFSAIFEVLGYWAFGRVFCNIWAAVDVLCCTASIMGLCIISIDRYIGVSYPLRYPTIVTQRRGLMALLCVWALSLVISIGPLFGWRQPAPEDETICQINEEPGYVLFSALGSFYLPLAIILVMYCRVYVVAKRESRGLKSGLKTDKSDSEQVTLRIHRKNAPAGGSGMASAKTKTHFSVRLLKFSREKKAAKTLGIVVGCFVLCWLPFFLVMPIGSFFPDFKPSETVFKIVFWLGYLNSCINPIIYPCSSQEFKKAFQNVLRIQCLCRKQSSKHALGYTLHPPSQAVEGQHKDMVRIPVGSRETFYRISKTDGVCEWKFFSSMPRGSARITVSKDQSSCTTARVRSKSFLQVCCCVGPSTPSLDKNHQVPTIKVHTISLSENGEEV

human α1A‐adrenoceptor [2] = molecular target: T1, human α1A‐adrenoceptor; assay: ERK1/2‐phosphorylation (Surefire Alphascreen), CHO‐α1A cells; type: cell-based
human α1A‐adrenoceptor [3] = molecular target: T1, human α1A‐adrenoceptor; assay: Intracellular free calcium mobilization, CHO‐α1A cells; type: cell-based
[4] = molecular target: T2, human α1D‐adrenoceptor (full length) (Homo sapiens, UniProt P25100); assay: ^3H‐prazosin whole‐cell radioligand binding, CHO‐α1D cells
T2 construct: human α1D‐adrenoceptor (full length) were used; expressed in transfected cells; host or cells: CHO-K1

human α1A‐adrenoceptor [5] = molecular target: T1, human α1A‐adrenoceptor; assay: ^3H‐cAMP accumulation in the presence of 10 μM forskolin, CHO‐α1A cells; type: cell-based
human α1B‐adrenoceptor [6] = molecular target: T3, human α1B‐adrenoceptor (Homo sapiens, UniProt P35368); assay: ^3H‐prazosin whole‐cell radioligand binding, CHO‐α1B cells
T3 construct: expressed in transfected cells; host or cells: CHO-K1

human α1A‐adrenoceptor [7] = molecular target: T1, human α1A‐adrenoceptor; assay: ^3H‐prazosin whole‐cell radioligand binding, CHO‐α1A cells
human α1B‐adrenoceptor [8] = molecular target: T3, human α1B‐adrenoceptor; assay: Intracellular free calcium mobilization, CHO‐α1B cells; type: cell-based
human α1B‐adrenoceptor [9] = molecular target: T3, human α1B‐adrenoceptor; assay: ^3H‐cAMP accumulation, CHO‐α1B cells; type: cell-based
human α1B‐adrenoceptor [10] = molecular target: T3, human α1B‐adrenoceptor; assay: ^3H‐cAMP accumulation in the presence of 10 μM forskolin, CHO‐α1B cells; type: cell-based
[11] = molecular target: T2, human α1D‐adrenoceptor (full length); assay: Intracellular free calcium mobilization, CHO‐α1D cells; type: cell-based
human α1B‐adrenoceptor [12] = molecular target: T3, human α1B‐adrenoceptor; assay: ERK1/2‐phosphorylation (Surefire Alphascreen), CHO‐α1B cells; type: cell-based; conditions: for bi‐phasic responses the initial stimulatory part, read-out: ERK1/2‐phosphorylation Log EC50 (converted)
human α1A‐adrenoceptor [13] = molecular target: T1, human α1A‐adrenoceptor; conditions: CHO‐α1A cells; given as log KD (negative); ligands marked ^a; ref Proudman et al., 2020; cited from earlier work
human α1B‐adrenoceptor [14] = molecular target: T3, human α1B‐adrenoceptor; conditions: cited from earlier work
[15] = CHO‐α1A cells, 2–4 min, ^a bi‐phasic: initial stimulatory part, ^b also active in parent CHO cells, read-out: ERK1/2‐phosphorylation Log EC50 (converted)

For `COc1ccccc1N1CCN(CCN2C(=O)CC3(CCCC3)CC2=O)CC1` [BMY7378], the “cAMP accumulation Log EC50” value (human α1A‐adrenoceptor [1]; CHO‐α1A cells, 5 h) was “No response”, the EC50 (human α1A‐adrenoceptor [2]; [15]) was 155 nM and the EC50 (human α1A‐adrenoceptor [3]; CHO‐α1A cells, given as log EC50 (negative), read-out: Intracellular calcium release Log EC50 (converted)) was 91.2 nM.
For `Cc1cccc(Cc2c[nH]cn2)c1C` [Detomidine], the EC50 (human α1A‐adrenoceptor [1]; CHO‐α1A cells, 5 h, read-out: cAMP accumulation Log EC50 (converted)) was 141 nM, the “Affinity selectivity ratio α1B vs α1D” value [4] was 2.3 fold and the EC50 (human α1A‐adrenoceptor [5]; CHO‐α1A cells, 10 μM forskolin, read-out: cAMP accumulation (in presence of forskolin) Log EC50 (converted)) was 36.3 nM. For the same molecule, the “cAMP accumulation (in presence of forskolin) Fold increase” value (human α1A‐adrenoceptor [5]; CHO‐α1A cells, fold increase of the forskolin response) was 1.95 ± 0.13 fold, the Kd (human α1B‐adrenoceptor [6]; CHO‐α1B cells, given as log KD (negative), mean ± SEM) was 2240 nM and the Kd (human α1B‐adrenoceptor [6]; Log KD, ^3H‐prazosin binding, CHO‐α1B cells, whole‐cell binding (from Table 1), given as log KD (negative numbers)) was 2240 nM. The “Affinity selectivity ratio α1A vs α1B” value (human α1A‐adrenoceptor [7]) was 15.8 fold, the “Affinity selectivity ratio α1A vs α1D” value (human α1A‐adrenoceptor [7]) was 6.9 fold and the Kd (human α1A‐adrenoceptor [7]; CHO‐α1A cells, given as log KD (negative), mean ± SEM) was 141 nM. For the same molecule, the “Intracellular calcium release % ionomycin” value (human α1B‐adrenoceptor [8]) was 33.8 ± 1.7%, the “Log efficacy ratio KD /EC50” value (human α1B‐adrenoceptor [8]) was 1.84 and the EC50 (human α1B‐adrenoceptor [8]; read-out: Intracellular calcium release Log EC50 (converted)) was 32.4 nM. The EC50 (human α1B‐adrenoceptor [9]; read-out: cAMP accumulation Log EC50 (converted)) was 12.6 nM, the EC50 (human α1A‐adrenoceptor [2]; [15]) was 8.91 nM and the “Intracellular calcium release % ionomycin” value (human α1A‐adrenoceptor [3]) was 47.7 ± 1.8%. The “Log efficacy ratio KD /EC50” value (human α1A‐adrenoceptor [3]) was 1.20, the “cAMP accumulation (in presence of forskolin) Fold increase” value (human α1B‐adrenoceptor [10]; fold increase of the forskolin response) was 1.57 ± 0.07 fold and the EC50 (human α1B‐adrenoceptor [10]; in presence of forskolin, read-out: cAMP accumulation (in presence of forskolin) Log EC50 (converted)) was 12.9 nM. For the same molecule, the “Intracellular calcium release % Ionomycin at 100 µM” value [11] was 3.8 ± 0.8% and the EC50 (human α1B‐adrenoceptor [12]) was 67.6 nM.
In the case of `CC(Cc1ccc(O)cc1)NCC(O)c1cc(O)cc(O)c1` (stereo not shown) [Fenoterol], the “Affinity selectivity ratio α1B vs α1D” value [4] is reported as 2.8 fold, the “Affinity selectivity ratio α1A vs α1B” value (human α1A‐adrenoceptor [7]) is reported as 24.0 fold and the “Affinity selectivity ratio α1A vs α1D” value (human α1A‐adrenoceptor [7]) is reported as 8.7 fold. For the same molecule, the “Log efficacy ratio KD /EC50” value (human α1B‐adrenoceptor [8]) was 2.36 and the “Log efficacy ratio KD /EC50” value (human α1A‐adrenoceptor [3]) was 1.22.
`CC(CCc1ccccc1)NCC(O)c1ccc(O)c(C(N)=O)c1` (stereo not shown) [Labetolol] showed an EC50 (human α1A‐adrenoceptor [1]) of 35.5 nM, an EC50 (human α1A‐adrenoceptor [5]) of 40.7 nM and a Kd (human α1B‐adrenoceptor [6]; Log KD, ^3H‐prazosin binding) of 1230 nM. The “Log KD α1A, ^3H‐prazosin whole cell binding” value (human α1A‐adrenoceptor [13]) was −7.33 ± 0.04, the “cAMP accumulation Log EC50” value (human α1B‐adrenoceptor [9]) was “No response” and the “Log KD α1B, ^3H‐prazosin whole cell binding” value (human α1B‐adrenoceptor [14]) was −5.91 ± 0.03. For the same molecule, the EC50 (human α1A‐adrenoceptor [2]) was 30.9 nM, the EC50 (human α1A‐adrenoceptor [3]) was 12.6 nM and the “cAMP accumulation (in presence of forskolin) Log EC50” value (human α1B‐adrenoceptor [10]; in presence of forskolin) was “No response”.
